Literature values as cited in patent publication US6242481A, “Methods for the inhibition of angiogenesis with arglabin” (priority 1999, dated 2001).

Experiments:
[1] = test system: pulmonary hemangiomatosis; details: in vivo; cited from earlier work
[2] = test system: tumor-induced angiogenesis in mouse dermis; details: cited from earlier work
[3] = test system: angiogenesis induced by allogeneic spleen cells; details: in vivo; cited from earlier work

Q: For “Human recombinant interferon (alpha/A): Human recombinant interferon (alpha/A)”, which “treatment of pulmonary hemangiomatosis” value [1] is on record?
A: successfully used

B1: human interferon beta: human interferon beta (protein, UniProt P01574 22-187, looked up)
Interferon beta: MSYNLLGFLQRSSNFQCQKLLWQLNGRLEYCLKDRMNFDIPEEIKQLQQFQKEDAALTIYEMLQNIFAIFRQDSSSTGWNETIVENLLANVYHQINHLKTVLEEKLEKEDFTRGKLMSSLHLKRYYGRILHYLKAKEYSHCAWTIVRVEILRNFYFINRLTGYLRN
Q: What does the source list for B1?
A: inhibition of tumor-induced angiogenesis [2]: inhibit tumor-induced angiogenesis; inhibition of angiogenesis induced by allogeneic spleen cells [3]: potent inhibitor
